Test results reported in patent publication US11780826B2 (Amgen Inc., priority 2017, dated 2023).

Test system: Bovine cardiac myofibrils
Experiment: In vitro model of dose-dependent myofibril ATPase modulation (AC1.4, pyruvate kinase/lactate dehydrogenase-coupled ATPase assay at pCa25)
Assay type: biochemical
Conditions: concentration at which ATPase activity was 1.4-fold higher than the bottom of the dose curve, mean of a minimum of two independent tests
Protocol: In vitro Model of Dose-Dependent Myofibril ATPase Modulation: Dose responses were measured using a calcium-buffered, pyruvate kinase and lactate dehydrogenase-coupled ATPase assay containing the following reagents (concentrations expressed are final assay concentrations): Potassium PIPES (12 mM), MgCl2 (2 mM), ATP (1 mM), DTT (1 mM), BSA (0.1 mg/mi), NADH (0.5 mM), PEP (1.5 mM), pyruvate kinase (4 U/ml), lactate dehydrogenase (8 U/ml), and antifoam (90 ppm). The pH was adjusted to 6.80 at 22° C. by addition of potassium hydroxide.
Bovine cardiac myofibrils were obtained by homogenizing the appropriate tissue in the presence of detergent. Such treatment removes membranes and majority of soluble cytoplasmic proteins but leaves intact cardiac sarcomeric acto-myosin apparatus. Concentrations of myofibrils were adjusted to achieve the necessary rate of ATP hydrolysis (typically 0.25-1.0 mg/ml).
Assays were performed by first preparing a dilution series of test chemical entity, each with an assay mixture containing potassium Pipes, MgCl2, BSA, DTT, pyruvate kinase, lactate dehydrogenase, myofibrils, antifoam, EGTA, CaCl2, and water. The assay was started by adding an equal volume of solution containing potassium Pipes, MgCl2, BSA, DTT, ATP, NADH, PEP, antifoam, and water. ATP hydrolysis was monitored by absorbance at 340 nm. […]

AC1.4: 2.775 µM
Structure (SMILES): Cc1ccc(C(=O)N2[C@@H](C(=O)N[C@@H](c3cc(F)c(C(F)(F)F)cc3F)C3COC3)C[C@H]3C[C@H]32)s1 [Example 816, (1R,3R,5R)-N-((R)-(2,5-difluoro-4-(trifluoromethyl)phenyl)(oxetan-3-yl)methyl)-2-(5-methylthiophene-2-carbonyl)-2-azabicyclo[3.1.0]hexane-3-carboxamide]
